Test: Ratio of AUC in Wistar rat tissue cage fluid to MIC for Escherichia coli ATCC 35218 at 100 mg/kg/day, ip measured on day 4
Type: functional
Conditions: route intraperitoneal

C[C@H]1COc2c(N3CCN(C)CC3)c(F)cc3c(=O)c(C(=O)O)cn1c23.C[C@H]1COc2c(N3CCN(C)CC3)c(F)cc3c(=O)c(C(=O)O)cn1c23.O [LEVOFLOXACIN]
Ratio: 234

From ChEMBL document CHEMBL1687713, “Antagonistic effect of rifampin on the efficacy of high-dose levofloxacin in staphylococcal experimental foreign-body infection” (Antimicrob Agents Chemother, 2008)
